Measurements as given in publication PMC11347169.
pKd: −log10 of the molar value.

Sequences of proteins named here, by UniProt entry; tags and fusion partners are left off. A change or cut given only in a name is not applied to a line headed by its entry.
UniProt P28340: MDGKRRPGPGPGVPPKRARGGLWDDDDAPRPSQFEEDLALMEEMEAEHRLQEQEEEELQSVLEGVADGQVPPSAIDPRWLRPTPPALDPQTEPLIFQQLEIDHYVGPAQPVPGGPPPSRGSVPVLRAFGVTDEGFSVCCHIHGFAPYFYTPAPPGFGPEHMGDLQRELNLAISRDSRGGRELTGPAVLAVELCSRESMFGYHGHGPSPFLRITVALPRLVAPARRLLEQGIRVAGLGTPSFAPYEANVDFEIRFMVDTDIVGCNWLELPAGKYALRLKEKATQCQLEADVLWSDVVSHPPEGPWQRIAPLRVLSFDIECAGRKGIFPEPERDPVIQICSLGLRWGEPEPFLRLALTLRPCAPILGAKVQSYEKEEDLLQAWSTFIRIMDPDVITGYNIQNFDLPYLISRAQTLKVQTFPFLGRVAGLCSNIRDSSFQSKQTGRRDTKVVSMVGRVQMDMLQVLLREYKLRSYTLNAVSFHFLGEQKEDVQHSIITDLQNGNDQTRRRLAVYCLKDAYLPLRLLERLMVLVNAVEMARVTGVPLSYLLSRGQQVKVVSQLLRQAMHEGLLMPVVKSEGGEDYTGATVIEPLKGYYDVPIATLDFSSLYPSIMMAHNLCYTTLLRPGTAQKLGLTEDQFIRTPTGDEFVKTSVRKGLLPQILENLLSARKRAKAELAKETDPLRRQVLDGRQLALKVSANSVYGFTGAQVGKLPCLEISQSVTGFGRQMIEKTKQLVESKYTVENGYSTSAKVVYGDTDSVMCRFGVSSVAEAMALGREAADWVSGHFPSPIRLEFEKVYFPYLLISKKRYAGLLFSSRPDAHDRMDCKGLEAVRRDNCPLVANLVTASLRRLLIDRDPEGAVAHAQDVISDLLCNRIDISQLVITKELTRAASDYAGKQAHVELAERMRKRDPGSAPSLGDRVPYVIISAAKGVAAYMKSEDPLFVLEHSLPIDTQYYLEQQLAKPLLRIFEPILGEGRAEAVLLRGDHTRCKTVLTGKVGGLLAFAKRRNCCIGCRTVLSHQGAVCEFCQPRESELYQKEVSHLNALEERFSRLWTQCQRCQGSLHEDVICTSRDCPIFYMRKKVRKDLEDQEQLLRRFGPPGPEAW

Target: Pol δ polymerase-and-exonuclease-deficient mutant (Pol δ polymerase-deficient mutant) (Homo sapiens) (UniProt P28340)
Experiment: MST
Conditions: enzyme

Simian virus 40 large T antigen (L-Tag) (from UniProt P03070 1-708)
pKd: 8.96
